## scFv variants of Ab-14 (heavy chain) against a SARS-CoV-2 spike peptide

The target is the same throughout: PDVDLGDISGINAS, from the HR2 region of SARS-CoV-2 spike.

Ab-14 is the parent antibody, in scFv form: VH, then a 15-residue (Gly4Ser)3 linker, then VL. The light chain is unchanged in all variants.
VH: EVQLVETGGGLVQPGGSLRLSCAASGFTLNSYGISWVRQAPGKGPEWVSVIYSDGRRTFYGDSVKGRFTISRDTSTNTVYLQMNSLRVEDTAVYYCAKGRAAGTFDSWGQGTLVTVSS
VL: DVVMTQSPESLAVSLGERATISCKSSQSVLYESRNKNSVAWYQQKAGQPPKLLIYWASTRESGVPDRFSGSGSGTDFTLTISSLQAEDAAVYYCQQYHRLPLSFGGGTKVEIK

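The variants were designed computationally from a first round of random CDR variants and then made and measured. Group labels follow the data file (Ctrl: baseline library sampled from a position-specific scoring matrix, with some repeated check sequences; Rand: our label for a block that the file lists under HC and that is probably the random mutants of the ten best first-round binders; En: ensemble of fine-tuned language models; GP: Gaussian process model; GPLM: also part of the Gaussian process libraries; HC: hill climbing; Gen: genetic algorithm; Gibbs: Gibbs sampling; a sequence that several methods proposed may carry one label only). AlphaSeq pools MATa yeast showing the antibodies with MATalpha yeast showing the peptide. Pairs that bind mate more often; barcode pairs of the diploids are counted by sequencing. The ratio of observed to expected reads was calibrated, replicate by replicate, on BCL2-family standards whose Kd was known from biolayer interferometry. There are six technical replicates.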

Each variant is given by its three heavy chain CDRs, as the data file delimits them; those of the parent are GFTLNSYGIS, VIYSDGRRTFYGDSVK, GRAAGTFDS. Scale: log10 of Kd in nM, estimated from mating counts; low values are strong binders. The mean shown is taken over the replicates in which the pair was detected. Where no diploid with the target was found in any replicate, the entry reads "nd": below detection, most likely a poor binder, though not proof of it. In the paper, a design with two or fewer of six values counts as a poor binder.

CDR-H1 | CDR-H2 | CDR-H3 | group | mean, log10 nM | seen in | control signals
GFSLNSYGIS | VIYSDGRRTFYGDQVK | GQAAGTFDS | GPLM_Gen | 1.30 | 6 of 6 | 0 of 18
NFTLNSYGIS | VIYSDGRRTFYGDSVK | GKAAGTFDS | Ctrl | -0.01 | 6 of 6 | 0 of 18
GFDLNEYGIS | VIYADGRRTFYSDKVK | GNQGGTFDI | En_HC | 0.44 | 4 of 6 | 0 of 18
GFTLEDYGIS | VIYADGRRTAYGNRVK | GRAAGTADS | Ctrl | 1.86 | 5 of 6 | 1 of 18
GFDLNEYGIS | VIYADGLRTSYLDSVK | GQLAGTFDQ | En_HC | 0.34 | 6 of 6 | 0 of 18
GFDLNEYGIS | VIYADGRRTFYLDSVK | GQLAGTFDV | En_HC | -0.57 | 6 of 6 | 0 of 18
GFDLNSYGIS | VIYSDGKRTFYDDSVK | GRAAGTFDS | GP_Gen | -0.40 | 6 of 6 | 0 of 18
GFELNSYGIS | VIYSDGRRTFYDDSVK | GRAAGTFDV | Ctrl | 0.73 | 6 of 6 | 0 of 18
GFTLNQYGIS | VIYSDGWRTFYSDSVK | GRVAGTFDS | GP_HC | 0.17 | 6 of 6 | 0 of 18
GFTLNSYGIS | VIYSDGRRTFYSDRVK | GEAAGTFDT | GPLM_Gen | 1.10 | 6 of 6 | 0 of 18
GFDLNEYGIS | VIYADGQRKAYADSVK | GEVAGTFDV | En_Gen | 0.32 | 6 of 6 | 0 of 18
GFDLNEYGIS | VIYADGMRTAYADSVK | GNTAGTFDQ | En_Gen | -0.75 | 6 of 6 | 0 of 18
GFELNEYGIS | VIYSDGRRTFRGDSVK | GRAAVTQDQ | Rand | nd | 0 of 6 | 0 of 18
GFELNSYGIS | VIYSDGRRTFYGDSVK | GNVAGTFDT | GPLM_Gibbs | 0.27 | 6 of 6 | 0 of 18
GFDLNEYGIS | VIYADGMRTAYADSVK | GNVAGTFDD | En_Gen | 0.04 | 6 of 6 | 0 of 18
GFELNQYGIS | VIYSDGRRTFYSDSVK | GQDAGTFDS | GP_HC | 0.70 | 6 of 6 | 0 of 18
GNDLDEYGIS | VIYADGSRTSYIDKVK | GLVGGQLIV | En_Gibbs | 2.12 | 1 of 6 | 0 of 18
GFNLDEYGIS | VIYADGRRTFYQDSVK | GEVAGTFDM | En_HC | -0.53 | 6 of 6 | 0 of 18
GFDLNEYGIS | VIYADGMRTQYIDSVK | GEMAGTFDS | En_HC | 0.50 | 6 of 6 | 0 of 18
GFDLNSYGIQ | VIYSDGRRTFYGDSVK | GRQAGTFNQ | Ctrl | nd | 0 of 6 | 0 of 18
GFTLNDYGIS | VIYSDKRRTFPGCSVK | GRAALTKPS | Rand | nd | 0 of 6 | 0 of 18
GQDLNEYGIS | VIYADGLRTAYSENVK | GNQSQFDDG | En_Gibbs | nd | 0 of 6 | 0 of 18
GFDLDKYGIS | VIYADGMRKSYADKVK | GRLSGTFYI | En_Gibbs | nd | 0 of 6 | 0 of 18

Continued, with the values leading:

mean, log10 nM | seen in | control signals | CDR-H1 | CDR-H2 | CDR-H3 | group
1.38 | 6 of 6 | 0 of 18 | KFQLNSYGIS | VIYADGRRTFYGDSVK | GRTAGTFDS | GP_Gibbs
nd | 0 of 6 | 0 of 18 | GFDLNSYGIS | VIYSDGRRTFYGDSVK | GNAAGTFDA | GP_Gen
nd | 0 of 6 | 0 of 18 | GYDIEEYGVS | VIYADGKRNAYANSVK | GKWAGAFVD | En_Gibbs
-0.62 | 6 of 6 | 0 of 18 | GFDLNEYGIS | VIYADGMRTYYADSVK | GETAGTFDL | En_Gen
nd | 0 of 6 | 0 of 18 | GFDLEEYGIS | VIYADGHRSKYANSVK | GGQVDFAIT | En_Gibbs
-0.28 | 6 of 6 | 0 of 18 | GFDLDEYGIS | VIYADGQRTAYSDSVK | GQNAGTFDV | En_Gen
nd | 0 of 6 | 0 of 18 | GFDVDEQGIS | VIYADGLRSQYANSVK | GAIGGMFFQ | En_Gibbs
-0.60 | 6 of 6 | 0 of 18 | GFDLNEYGIS | VIYADGRRTAYIDSVK | GEIAGTFDT | En_HC
3.39 | 1 of 6 | 0 of 18 | GFNLDEYGIS | VIYADGQRTQYANDVK | GGYGGIMLS | En_Gibbs
-0.09 | 6 of 6 | 0 of 18 | GFELNSYGIS | VIYSDGRRTFYTDSVK | GLTAGTFDS | GPLM_Gen
nd | 0 of 6 | 0 of 18 | GFTLNSYGIR | VIYADGRRTFYADSVK | GRAAGTNKS | Rand
-0.16 | 6 of 6 | 0 of 18 | GFDLNEYGIS | VIYADGRRTFYADSVK | GENAGTFKF | En_HC
3.26 | 3 of 6 | 0 of 18 | GFQLNEYGIS | VIYSDGQRTFYGDSVK | GRTAGTFDS | GP_Gen
0.97 | 5 of 6 | 0 of 18 | GFSLNSYGIS | VIYSDGRRTFYQDRVK | GEAAGTFDT | GP_Gibbs
1.18 | 12 of 12 | 1 of 36 | GFTLNSYGIS | VIYSDGRRTFYADSVK | GRIAGTFDS | Ctrl+GPLM_Gen
-0.52 | 6 of 6 | 0 of 18 | GFDLNEYGIS | VIYADGRRTYYADSVK | GNVAGTFDQ | En_Gen
0.57 | 1 of 6 | 0 of 18 | LFTLNEYGIS | VIYSDGRRTFYGDSVK | GRTAGTFDS | GP_HC
-0.76 | 6 of 6 | 0 of 18 | GFDLDEYGIS | VIYADGMRTAYADSVK | GTNAGTFDT | En_Gen
0.84 | 6 of 6 | 0 of 18 | GFNLDEYGIS | VIYADGRRTFYADSVK | GQIAGTFIV | En_HC
nd | 0 of 6 | 0 of 18 | GFTPNSYGIS | VIYSDGRRTFYGDSVK | GEAAGTFRS | Ctrl
1.15 | 6 of 6 | 0 of 18 | GFALNEYGIS | VIYSDGRRTFYVDDVK | GRTAGTFDS | GP_HC
1.22 | 1 of 6 | 0 of 18 | GFTLNSYGIS | VIYSDGRRTFYGDSVK | GQVAGTFDV | GPLM_Gibbs
-0.58 | 6 of 6 | 0 of 18 | GFDLNEYGIS | VIYADGKRTAYVDSVK | GNVAGTFDM | En_Gen
0.94 | 5 of 6 | 0 of 18 | GFSLNSYGIS | VIYSDGRRTFYGDSVK | GYEAGTFDS | Ctrl

Excerpt, the final 4 entries:

CDR-H1 | CDR-H2 | CDR-H3 | group | mean, log10 nM | seen in | control signals
GFALNEYGIS | VIYSDGRRTFYVDDVK | GRTAGTFDS | GP_HC | 1.15 | 6 of 6 | 0 of 18
GFTLNSYGIS | VIYSDGRRTFYGDSVK | GQVAGTFDV | GPLM_Gibbs | 1.22 | 1 of 6 | 0 of 18
GFDLNEYGIS | VIYADGKRTAYVDSVK | GNVAGTFDM | En_Gen | -0.58 | 6 of 6 | 0 of 18
GFSLNSYGIS | VIYSDGRRTFYGDSVK | GYEAGTFDS | Ctrl | 0.94 | 5 of 6 | 0 of 18

Values of this round are not directly comparable with the first-round values of the same sequences. As a blank, each scFv also met three strains without target: over all heavy chain designs, 1% of these pairings were detected, typically at 2.08 and seldom below 0.84. For each scFv, signals with the empty controls are counted beside the result. The parent sequence was in this pool as ten entries: three were never detected, three once, and four in most replicates, with averages from 0.34 to 2.37. Where one sequence has several entries in the source, the replicates are pooled.

Values reported by Li et al. 2023, doi:10.1038/s41467-023-39022-2 (FLAb copy).